From ChEMBL document CHEMBL1137227, “Identification of a selective inverse agonist for the orphan nuclear receptor estrogen-related receptor alpha” (J Med Chem, 2004)
Active and inactive are the calls of the source. The rule behind the calls is not given here.

Biological target: T1, Steroid hormone receptor ERR1 (Homo sapiens) (UniProt P11474)
T1 sequence (whole entry): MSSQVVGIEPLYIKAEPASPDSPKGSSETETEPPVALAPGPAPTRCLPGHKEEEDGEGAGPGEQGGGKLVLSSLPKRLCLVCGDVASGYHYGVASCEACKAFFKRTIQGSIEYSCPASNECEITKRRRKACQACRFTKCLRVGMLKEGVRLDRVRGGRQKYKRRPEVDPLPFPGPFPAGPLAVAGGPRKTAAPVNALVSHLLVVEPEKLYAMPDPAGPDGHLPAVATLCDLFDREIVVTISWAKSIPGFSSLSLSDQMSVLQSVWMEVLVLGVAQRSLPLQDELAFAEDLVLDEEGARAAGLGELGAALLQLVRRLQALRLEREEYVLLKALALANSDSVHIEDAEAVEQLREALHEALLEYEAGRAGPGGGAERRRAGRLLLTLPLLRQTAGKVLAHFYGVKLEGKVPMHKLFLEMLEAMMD
Details: 10 uM

Row | inhibition | SMILES
1 | inactive | CCc1nnc(NC(=O)/C(C#N)=C/c2ccc(OCc3c(F)cccc3C(F)(F)F)c(OC)c2)s1
2 | inactive | CCc1nnc(NC(=O)/C(C#N)=C/c2ccc(OCc3cc(C(F)(F)F)ccc3C(F)(F)F)c(OC)c2)s1
